According to patent US20090264470A1 (priority 2006, published 2009):

Assay: Acute administration: wet mash and food intake and 24 h body weight in lean male C57BL/6J mice
Assay type: in vivo, mouse
Conditions: dosed alone per the protocol; less than with the bupropion combinations
Description: The goal of this study was to investigate the effects of various ratios of bupropion:(R)-norfluoxetine on body weight and food and water intake in male C57BL/6J mice habituated to the daily presentation of a palatable wet mash diet. Rimonabant was used as a reference compound. Animals were maintained on normal-phase lighting. Test compounds were administered orally and measurements were made over the following 24 hours. All experiments included appropriate vehicle-treated control groups.
Sixty-two male C57BL/6J mice (weight range 20-25 g) were ordered from Harlan UK, Bicester, UK. The mice were individually housed in polypropylene cages at a temperature of 21±4° C. and 55%±20% humidity. […]
Typically an acute study was run each week with each study containing 60 animals. […] Animals were weighed and 2 h wet mash intake was calculated (to the nearest 0.1 g). […]
Drug administration occurred 60 minutes before the presentation of ‘wet mash’ which was at approximately 09:30 am. […] The mash was replaced with a fresh quantity of wet mash at the 4 hour time point. […] Wet mash was replaced with a known quantity of standard pellets at the 6 hour time point. […] Food and water intakes of the different groups of animals were measured concurrently. The animals were monitored at each reading and any overt drug-induced behavioural effects were recorded. […]

For `NCC[C@@H](Oc1ccc(C(F)(F)F)cc1)c1ccccc1.O=C(O)C(O)C(O)C(=O)O` [(R)-Norfluoxetine (D)-tartrate, (R)-norfluoxetine (D)-tartrate], the “effect on weight gain” value was “reduction” and the “effect on wet mash intake” value was “reduction”.
